Assay results: patent US7273716B2 (priority 2003, dated 2007)
One block for each molecule: values may come before it.

Tests used:
Assay in all cases: cell-based or functional assay
[1] = target: porcine liver carboxylesterase (porcine) (UniProt Q29550)
[2] = target: human leukocyte elastase (human) (UniProt P08246)
[3] = target: GS-7340 ester hydrolase purified from human peripheral blood mononuclear cells, identified as human protective protein for beta-galactosidase: Cathepsin A (human) (UniProt P10619)
[4] = target: porcine liver carboxylesterase (porcine, UniProt Q29550 19-566)

Molecule: MeOSuc-Ala-Ala-Pro-Ala-CMK (peptide)
IC50 (µM), inhibition of enzymatic production of [14C] Metabolite X from Compound K [1]: > 1000 µM
IC50 (µM), inhibition of enzymatic production of [14C] Metabolite X from Compound K [2]: 60 µM

Molecule: MeOSuc-Ala-Ala-Pro-Val-CMK (peptide)
IC50 (µM), inhibition of enzymatic production of [14C] Metabolite X from Compound K [1]: > 1000 µM
IC50 (µM), inhibition of enzymatic production of [14C] Metabolite X from Compound K [3]: 100 µM
IC50 (µM), inhibition of enzymatic production of [14C] Metabolite X from Compound K [2]: 4 µM

IC50 (µM), inhibition of enzymatic production of [14C] Metabolite X from Compound K [4]: > 1000 µM
Molecule: FA (N-terminal biotin; C-terminal fluoromethyl ketone (FMK)) [Biotin-Phe-Ala-FMK]
